Here are results for one molecule from article PMC8814693, “Structural insights into apoptotic regulation of human Bfk as a novel Bcl-2 family member” (Computational and Structural Biotechnology Journal, 2022).

The target in this assay is T1, Bak (residues 23-186) (UniProt Q16611 23-186).
T1 construct: Bak, residues 23-186; Cloned in pET-28a(+) between NdeI and XhoI; buffer-exchanged to HBS-EP
T1 sequence (looked up): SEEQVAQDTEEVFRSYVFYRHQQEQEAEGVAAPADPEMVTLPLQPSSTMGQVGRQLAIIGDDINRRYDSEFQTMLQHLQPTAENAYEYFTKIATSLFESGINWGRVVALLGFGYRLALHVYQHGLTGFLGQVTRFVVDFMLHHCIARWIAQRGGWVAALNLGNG
The assay can be described thus: SPR; Bfk BH3 peptide amine-coupled to a CM5 chip (10 mM sodium acetate pH 5.0); Bcl-2, Bcl-XL (3.13-200 nM) and Bak (1.25-40.0 uM) injected in HBS-EP at 30 uL/min for 90 s; Biacore T200; KD by steady-state affinity analysis. Conditions: both partners purified.

B1: synthetic BH3 peptide derived from Bfk (residues 47-67) (peptide)
peptide: SFDVAIIAGRLRMLGDQFNGE
notes: BH3 peptide of human Bfk (BCL2L15), residues 47-67; also called Bfk BH3 peptide; Bfk BH3; source: synthetic peptide
As a reminder, the Kd is the constant that tells how readily two partners part at equilibrium. A higher Kd goes with a looser complex. For the molecule B1, binding was characterised by a dissociation constant (Kd) of 70 µM.
